# The list shows a part of the results, in another mix than the full data. Some results for these compounds are left out of this collection, so the calls shown say nothing about other tests. Records with an inconclusive call do not appear. Active and inactive are the calls of the source. The call rests on the fitted dose curve; in most records, active means well fitted inhibition curve with a large enough effect; inconclusive means small, poorly fitted or top-dose-only effect, or effect the other way; inactive means flat fitted curve, though single readings scatter.
# Assay: VP16 counterscreen qHTS for inhibitors of ROR gamma transcriptional activity;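 further: Gal4-VP16 expression switched on by copper sulfate through the metallothionein promoter; nearly all actives have a fitted effect of over 50% in size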
# Conditions: Drosophila S2 Gal4-VP16 UAS-luciferase, luminescence, 20 h; at 53.6 µM (top of the series)
# On the % scale 0 is the no-effect control and ±100 the full control effect.
row,Structure (SMILES),"activity, negative = inhibition"
1,Cc1ccccc1C(=O)NCC1(N2CCCCC2)CCCCC1,inactive: -14.6%
2,CN(C)C1CCCC1OC(=O)C(O)(c1ccccc1)c1ccccc1 (stereo not given),inactive: -2.27%
3,CN(C)c1ccc(C(=O)NCC2(N(C)C)CCCCC2)cc1,inactive: 2.69%
4,CN1CCCC(OC(=O)C(O)(c2ccccc2)c2ccccc2)C1 (stereo not given),inactive: -4.61%
5,C=CCN1CCN(CCOC(=O)C(O)(c2ccccc2)c2ccccc2)CC1,inactive: -3.68%
6,O=C(NCC1(N2CCCCC2)CCCCC1)c1cc(F)c(F)cc1Cl,inactive: 1.61%
7,COc1ccc(C(=O)NCC2(N(C)C)CCCCC2)cc1,inactive: 4.56%
8,Cc1cc(C(=O)NCC2(N3CCCCC3)CCCCC2)ccc1[N+](=O)[O-],inactive: 1.54%
9,CCN1CCCC(OC(=O)C2(O)c3ccccc3C=Cc3ccccc32)C1 (stereo not given),inactive: -19%
10,O=C(NCC1(N2CCCCC2)CCCCC1)c1cccc(Br)c1,inactive: 2.76%
11,O=C(NCC1(N2CCCCC2)CCCCC1)c1cc([N+](=O)[O-])ccc1Cl,inactive: -1.94%
12,CN1[C@@H]2CC[C@H]1CC(OC(=O)C(O)(c1ccccc1)c1ccccc1)C2 (stereo not given in full),inactive: 3.22%
13,CCN(CC)CC(C)C(C)OC(=O)C(O)(c1ccccc1)c1ccccc1 (stereo not given),inactive: -3.13%
14,COc1cc(SC)ccc1C(=O)NCC1(N(C)C)CCCCC1,inactive: -1.4%
15,CC(C)N1C(=O)CC2(CCN(CCOC(=O)C(O)(c3ccccc3)c3ccccc3)CC2)C1=O,inactive: 0%
16,Cc1ccc(C(=O)NCC2(N3CCCCC3)CCCCC2)cc1,inactive: 1.16%
17,O=C(OC1CN2CCC1CC2)C(CO)(c1ccccc1)c1ccccc1 (stereo not given),inactive: 4.79%
18,COc1ccc(Br)c(C(=O)NCC2(N3CCCCC3)CCCCC2)c1,inactive: -6.59%
19,CC(C)Oc1ccc(C(=O)NCC2(N(C)C)CCCCC2)cc1,inactive: 12.7%
20,CN(C)c1cccc(C(=O)NCC2(N(C)C)CCCCC2)c1,inactive: 4.53%
21,CN(C)C1(CNC(=O)c2ccc(Br)cc2)CCCCC1,inactive: 11.6%
22,COc1cc(C(=O)NCC2(N(C)C)CCCCC2)c([N+](=O)[O-])cc1OC,inactive: -2.27%
23,COc1cccc(C(=O)NCC2(N3CCCCC3)CCCCC2)c1,inactive: 10.6%
24,COc1ccc(Cl)cc1C(=O)NCC1(N(C)C)CCCCC1,inactive: -1.8%
25,O=C(NCC1(N2CCCCC2)CCCCC1)c1cccc(Cl)c1,inactive: 3.87%

# Reference: PubChem BioAssay AID2546 (National Center for Advancing Translational Sciences (NCATS), 2010)
